Laboratory results from paper PMC4376459, “CXCR3 antagonist VUF10085 binds to an intrahelical site distinct from that of the broad spectrum antagonist TAK-779” (British Journal of Pharmacology, 2015).
Residue numbers refer to the chain shown, from its start.

Assays:
CXCR3 H202A (ECL2) [1] = biological target: T1, CXCR3 H202A (ECL2) (Homo sapiens, UniProt P49682, H202A); test: Whole-cell 125I-CXCL11 binding assay, L1.2 transfectants; details: 0.1 nM 125I-CXCL11, read-out: IC50 ligand binding (mean ± SEM)
T1 construct: expressed in transfected cells; host or cells: murine pre-B cell line L1.2, transient transfection
T1 sequence (P49682 1-368 H202A): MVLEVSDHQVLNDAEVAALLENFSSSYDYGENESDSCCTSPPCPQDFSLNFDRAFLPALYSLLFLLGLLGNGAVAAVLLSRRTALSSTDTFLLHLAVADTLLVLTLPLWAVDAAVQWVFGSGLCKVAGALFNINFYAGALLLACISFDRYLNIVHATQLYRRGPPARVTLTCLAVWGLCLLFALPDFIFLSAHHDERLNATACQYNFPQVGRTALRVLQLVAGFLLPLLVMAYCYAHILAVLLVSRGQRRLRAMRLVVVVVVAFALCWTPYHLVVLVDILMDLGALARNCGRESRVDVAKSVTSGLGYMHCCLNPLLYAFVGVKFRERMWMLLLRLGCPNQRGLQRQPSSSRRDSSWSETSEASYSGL
Procedure: (§1) A previously described pcDNA3 plasmid containing human wild type (WT) CXCR3 cDNA with an HA epitope tag encoded at the N terminus (Meiser et al., [2008]) was used as a template for the generation of point mutants by PCR using the QuikChange II site-directed mutagenesis kit (Stratagene, Amsterdam, the Netherlands). All constructs were verified by DNA sequencing (Eurofins MWG Operon, Ebersberg, Germany) before use. L1.2 cells were transiently transfected by electroporation with 1 μg of vector DNA/10^6 cells at 330V, 975μF and incubated overnight in medium supplemented with 10 mM of sodium butyrate to enhance gene expression.
(§2) Whole-cell binding assays on transiently transfected L1.2 cells were performed as described previously (Vaidehi et al., [2009]) using 0.1 nM ^125I-CXCL11 (Perkin Elmer) and increasing concentrations of unlabeled CXCL11 or antagonist. Cell-associated radioactivity was counted in a Canberra Packard Cobra 5010 gamma counter (Canberra Packard, Pangebourne, UK). Curve fitting and subsequent data analysis was carried out using the program PRISM (GraphPad Software, Inc., San Diego, CA, USA) and IC50 values were obtained by non-linear regression analysis. In all experiments, each data point was assayed in duplicate, with each individual experiment repeated three times. Background binding levels obtained in the presence of a 1000–3000 molar excess of unlabelled chemokine were subtracted from each data point and data are presented as the percentage of counts obtained in the absence of competing ligand. KD values and the number of binding sites per cell were calculated from homologous binding curves prepared in Graph Pad Prism (La Jolla, CA, USA) as previously described (Nedjai et al., [2011]).

WT CXCR3 [2] = biological target: T2, WT CXCR3 (Homo sapiens, UniProt P49682); test: as above
T2 construct: expressed in transfected cells; host or cells: murine pre-B cell line L1.2, transient transfection by electroporation
T2 sequence (P49682 1-368): T1 sequence (P49682 1-368 H202A) with A202H
Procedure: as §1, §2

CXCR3 Y308A [3] = biological target: T3, CXCR3 Y308A (Homo sapiens, UniProt P49682, Y308A); test: as above; details: 0.1 nM 125I-CXCL11
T3 construct: expressed in transfected cells; host or cells: murine pre-B cell line L1.2, transient transfection
T3 sequence (P49682 1-368 Y308A): T1 sequence (P49682 1-368 H202A) with A202H, Y308A
Procedure: as §1, §2

CXCR3 Y60A [4] = biological target: T4, CXCR3 Y60A (Homo sapiens, UniProt P49682, Y60A); test: as above; details: 0.1 nM 125I-CXCL11, read-out: IC50 ligand binding (mean ± SEM)
T4 construct: expressed in transfected cells; host or cells: murine pre-B cell line L1.2, transient transfection
T4 sequence (P49682 1-368 Y60A): T1 sequence (P49682 1-368 H202A) with Y60A, A202H
Procedure: as §1, §2

D112N-CXCR3 [5] = biological target: T5, D112N-CXCR3 (Homo sapiens, UniProt P49682, D112N); test: as above; details: D112N-CXCR3 transfectants (Figure 1); read-out: IC50 for displacement of 125I-CXCL11
T5 construct: expressed in transfected cells; host or cells: murine pre-B cell line L1.2, transient transfection
T5 sequence (P49682 1-368 D112N): T1 sequence (P49682 1-368 H202A) with D112N, A202H
Procedure: as §1, §2

CXCR3 I279A [6] = biological target: T6, CXCR3 I279A (Homo sapiens, UniProt P49682, I279A); test: as above; details: 0.1 nM 125I-CXCL11, read-out: IC50 ligand binding (mean ± SEM)
T6 construct: expressed in transfected cells; host or cells: murine pre-B cell line L1.2, transient transfection
T6 sequence (P49682 1-368 I279A): T1 sequence (P49682 1-368 H202A) with A202H, I279A
Procedure: as §1, §2

CXCR3 F131A [7] = biological target: T7, CXCR3 F131A (Homo sapiens, UniProt P49682, F131A); test: as above; details: 0.1 nM 125I-CXCL11, read-out: IC50 ligand binding (mean ± SEM)
T7 construct: expressed in transfected cells; host or cells: murine pre-B cell line L1.2, transient transfection
T7 sequence (P49682 1-368 F131A): T1 sequence (P49682 1-368 H202A) with F131A, A202H
Procedure: as §1, §2

CXCR3 H202A (ECL2) [8] = biological target: T1, CXCR3 H202A (ECL2); test: Chemotaxis assay, L1.2 transfectants migrating to CXCL11; type: cell-based; details: 30 nM CXCL11, read-out: IC50 chemotaxis (mean ± SEM)
Procedure: as §1
(§3) Assays of chemotactic responsiveness were carried out as previously described (Vaidehi et al., [2009]) using 96-well ChemoTx® plates with 5 μm pores (Neuroprobe, Gaithersburg, MD, USA). Migrating cells were detected by the use of CellTiter Glo® Dye (Promega, Southampton, UK) and resulting luminescence measured using a TopCount scintillation counter (PerkinElmer, Waltham, MA, USA). Basal migration of cells to buffer alone was subtracted from the resulting data, with individual results expressed as a percentage of the total cells applied to the filter. In all experiments, each data point was assayed in duplicate. In every experiment, cells transiently expressing WT CXCR3 were used as a positive control.

WT CXCR3 [9] = biological target: T2, WT CXCR3; test: as above; type: cell-based
Procedure: as §1, §3

CXCR3 Y60A [10] = biological target: T4, CXCR3 Y60A; test: as above; type: cell-based; details: 30 nM CXCL11, read-out: IC50 chemotaxis (mean ± SEM)
Procedure: as §1, §3

CXCR3 I279A [11] = biological target: T6, CXCR3 I279A; test: as above; type: cell-based; details: 30 nM CXCL11
Procedure: as §1, §3

CXCR3 F131A [12] = biological target: T7, CXCR3 F131A; test: as above; type: cell-based; details: 30 nM CXCL11
Procedure: as §1, §3

CXCR3 Y308A [13] = biological target: T3, CXCR3 Y308A; test: as above; type: cell-based; details: 30 nM CXCL11
Procedure: (§4) A previously described pcDNA3 plasmid containing human wild type (WT) CXCR3 cDNA with an HA epitope tag encoded at the N terminus ([…] et al., [2008]) was used as a template for the generation of point mutants by PCR using the QuikChange II site-directed mutagenesis kit (Stratagene, Amsterdam, the Netherlands). All constructs were verified by DNA sequencing (Eurofins MWG Operon, Ebersberg, Germany) before use. L1.2 cells were transiently transfected by electroporation with 1 μg of vector DNA/10^6 cells at […], 975μF and incubated overnight in medium supplemented with 10 mM of sodium butyrate to enhance gene expression. Assays of chemotactic responsiveness were carried out as previously described ([…] et al., [2009]) using 96-well ChemoTx® plates with 5 μm pores (Neuroprobe, Gaithersburg, MD, USA). Migrating cells were detected by the use of CellTiter Glo® Dye (Promega, Southampton, UK) and resulting luminescence measured using a TopCount scintillation counter (PerkinElmer, Waltham, MA, USA). Basal migration of cells to buffer alone was subtracted from the resulting data, with individual results expressed as a percentage of the total cells applied to the filter. In all experiments, each data point was assayed in duplicate. In every experiment, cells transiently expressing WT CXCR3 were used as a positive control.

D112N-CXCR3 [14] = biological target: T5, D112N-CXCR3; test: as above; type: cell-based; details: 10 nM CXCL11, read-out: IC50 for inhibition of migration
Procedure: as §4

IC50 (CXCR3 H202A (ECL2) [1]): 299 ± 120 nM
IC50 (WT CXCR3 [2]; WT CXCR3, 0.1 nM 125I-CXCL11, read-out: IC50 ligand binding (mean ± SEM)): 241 ± 27 nM
IC50 (WT CXCR3 [2]; WT CXCR3 transfectants (Figure 1), read-out: IC50 for displacement of 125I-CXCL11): 169 nM
IC50 ligand binding (mean ± SEM) (CXCR3 Y308A [3]): no IC50 value could be calculated
IC50 (CXCR3 Y60A [4]): 236 ± 54 nM
IC50 (D112N-CXCR3 [5]): 2340 nM
IC50 (CXCR3 I279A [6]): 483 ± 210 nM
IC50 (CXCR3 F131A [7]): 161 ± 40 nM
IC50 (CXCR3 H202A (ECL2) [8]): 373 ± 14 nM
IC50 (WT CXCR3 [9]; WT CXCR3, 30 nM CXCL11, read-out: IC50 chemotaxis (mean ± SEM)): 198 ± 35 nM
IC50 (WT CXCR3 [9]; WT CXCR3 transfectants, 10 nM CXCL11, read-out: IC50 for inhibition of migration): 380 nM
IC50 (CXCR3 Y60A [10]): 292 ± 13 nM
increase in IC50 value, chemotaxis (CXCR3 I279A [11]; I279A versus WT): threefold
IC50 (CXCR3 I279A [11]; I279A, read-out: IC50 chemotaxis (mean ± SEM)): 676 ± 28 nM
IC50 chemotaxis (mean ± SEM) (CXCR3 F131A [12]): calculation of an IC50 value impossible
IC50 chemotaxis (mean ± SEM) (CXCR3 Y308A [13]): calculation of an IC50 value impossible
IC50 (D112N-CXCR3 [14]): 2520 nM
SMILES: CCOc1ccc(-n2c(C(C)N(Cc3cccnc3)C(=O)Cc3ccc(OC(F)(F)F)cc3)nc3ncccc3c2=O)cc1 (stereo not drawn) [VUF 10085, N-1R-[3-(4-ethoxy-phenyl)-4-oxo-3,4-dihydro-pyrido[2,3-d]pyrimidin-2-yl]-ethyl-N-pyridin-3-ylmethyl-2-(4-trifluoromethoxy-phenyl)-acetamide]
